Results taken from patent US20080287398A1, “COLD MENTHOL RECEPTOR-1 ANTAGONISTS” (priority 2007, published 2008).

Sequences of proteins named here, by UniProt entry; tags and fusion partners are left off. Residues count along the entry.
UniProt Q1A7N1, 1-1104: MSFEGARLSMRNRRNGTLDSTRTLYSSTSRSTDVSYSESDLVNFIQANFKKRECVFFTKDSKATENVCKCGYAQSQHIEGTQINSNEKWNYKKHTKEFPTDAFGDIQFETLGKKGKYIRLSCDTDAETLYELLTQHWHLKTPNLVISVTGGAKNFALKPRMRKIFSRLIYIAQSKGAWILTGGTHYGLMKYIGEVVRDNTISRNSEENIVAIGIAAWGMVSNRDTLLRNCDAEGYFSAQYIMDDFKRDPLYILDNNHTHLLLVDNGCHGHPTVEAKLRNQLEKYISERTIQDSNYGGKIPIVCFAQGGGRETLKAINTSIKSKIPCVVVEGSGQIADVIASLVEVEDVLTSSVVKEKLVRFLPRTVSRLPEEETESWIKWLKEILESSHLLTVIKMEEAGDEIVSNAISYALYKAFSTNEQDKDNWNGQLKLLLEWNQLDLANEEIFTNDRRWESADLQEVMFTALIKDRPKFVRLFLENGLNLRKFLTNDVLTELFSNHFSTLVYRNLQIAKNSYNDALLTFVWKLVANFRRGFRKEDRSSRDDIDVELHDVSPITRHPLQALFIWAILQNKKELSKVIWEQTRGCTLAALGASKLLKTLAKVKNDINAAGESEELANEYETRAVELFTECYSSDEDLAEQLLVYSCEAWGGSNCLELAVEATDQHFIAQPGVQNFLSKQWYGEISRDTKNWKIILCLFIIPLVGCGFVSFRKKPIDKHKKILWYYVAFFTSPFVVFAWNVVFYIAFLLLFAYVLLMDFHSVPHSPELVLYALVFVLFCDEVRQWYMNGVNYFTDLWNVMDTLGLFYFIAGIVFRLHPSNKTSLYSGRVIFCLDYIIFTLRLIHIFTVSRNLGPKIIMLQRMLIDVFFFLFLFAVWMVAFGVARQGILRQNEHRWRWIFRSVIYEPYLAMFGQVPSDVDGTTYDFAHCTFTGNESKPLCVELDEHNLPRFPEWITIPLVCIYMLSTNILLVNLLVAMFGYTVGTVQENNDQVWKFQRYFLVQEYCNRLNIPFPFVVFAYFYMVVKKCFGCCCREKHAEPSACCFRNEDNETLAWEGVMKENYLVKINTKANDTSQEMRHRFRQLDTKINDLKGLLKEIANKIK

Biological target: canine TRPM8 (Canis lupus familiaris, UniProt Q1A7N1)
Assay: In vitro canine TRPM8 functional assay (Ca2+-sensitive dye, FLIPR/FDSS, icilin activation)
Assay type: cell-based
Settings: HEK293 cells expressing canine TRPM8, icilin activation; for % I (0.5 μM): 0.5 μM compound; for IC50: eight-point dose-response

Row | SMILES | % I (0.5 μM) | IC50
1 | CCOP(=O)(OCC)C(Cc1ccc(F)c(C(F)(F)F)c1)c1sc2ccccc2c1Br (centres unmarked) | 102% | 44 nM
2 | CCOP(=O)(OCC)C(Cc1ccc(Cl)c(F)c1)c1sc2ccccc2c1Cl (centres unmarked) | 103% | 122 nM
3 | CCOP(=O)(OCC)C(Cc1cccc(SC(F)(F)F)c1)c1sc2ccccc2c1Br (centres unmarked) | 104% | 102 nM
4 | CCCn1c(C(Cc2ccc(F)c(C(F)(F)F)c2)P(=O)(OC(C)C)OC(C)C)c(Br)c2ccccc21 (centres unmarked) | 100% | 177 nM
